Literature values, collected in patent US11987604B2, “Fusion-proteins based on human ferritin and protease-cleavable peptides and their use as chemotherapeutics carriers” (THENA BIOTECH S.R.L., priority 2017, dated 2024).

Conditions: injected through the systemic route; cited from earlier work

## native HFt: Heavy chain of native human ferritin, SEQ ID NO 1, 24-mer nanoparticle
  plasma half-life: 2 to 3 h
